This assay deals with optic nerve. Description: Oxygen tension of optic nerve (ONPO2), polarographic electrode in the vitreous humour 0.5 mm over the optic disc of anaesthetised pigs. Also on record: species or system Danish agricultural pigs (landrace). Conditions: pig, in vivo.

In the case of `CCN[C@H]1C[C@H](C)S(=O)(=O)c2sc(S(N)(=O)=O)cc21.Cl` [dorzolamide, (S,S)-(-)-5,6-Dihydro-4-ethylamino-6-methyl-4H-thieno[2,3-b]thiopyran-2-sulfonamide-7,7-dioxide hydrochloride], the “raised the optic nerve oxygen tension by” value is given as 25-60%. For the setting “iv”, the ONPO2 after injection is on record as 26.9 ± 12.2 mmHg, the ONPO2 before injection came to 16.4 ± 6.1 mmHg and the “rise of ONPO2” value was determined as 52.5%.
